# Experimental data published in ChEMBL document CHEMBL4725350, “2-Oxaadamant-1-yl Ureas as Soluble Epoxide Hydrolase Inhibitors: In Vivo Evaluation in a Murine Model of Acute Pancreatitis” (J Med Chem, 2020).
# The chains behind the UniProt entries cited, without tags or fusion partners.
# UniProt P34913, whole entry: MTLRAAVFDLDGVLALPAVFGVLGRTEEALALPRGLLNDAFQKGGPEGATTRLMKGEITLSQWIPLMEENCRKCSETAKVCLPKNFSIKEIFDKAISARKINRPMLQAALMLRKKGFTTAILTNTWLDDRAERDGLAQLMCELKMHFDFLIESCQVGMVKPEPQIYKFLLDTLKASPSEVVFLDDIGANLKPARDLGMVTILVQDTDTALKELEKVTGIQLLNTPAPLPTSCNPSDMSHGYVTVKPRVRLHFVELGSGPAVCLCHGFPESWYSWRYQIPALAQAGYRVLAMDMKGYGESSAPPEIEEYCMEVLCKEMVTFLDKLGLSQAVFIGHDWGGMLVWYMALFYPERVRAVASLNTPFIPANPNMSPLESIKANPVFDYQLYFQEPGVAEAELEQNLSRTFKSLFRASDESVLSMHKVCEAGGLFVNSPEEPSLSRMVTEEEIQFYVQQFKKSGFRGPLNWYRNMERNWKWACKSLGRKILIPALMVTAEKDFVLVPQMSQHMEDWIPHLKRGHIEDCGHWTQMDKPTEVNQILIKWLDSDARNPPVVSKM
# Target: Bifunctional epoxide hydrolase 2 (Homo sapiens, UniProt P34913)
row,SMILES,IC50 [nM]
1,CC(=O)c1ccc(N2CCC(NC(=O)NC34CC5CC(CC(C5)O3)C4)CC2)cc1,82.5
2,CC(C)S(=O)(=O)N1CCC(NC(=O)NC23CC4CC(CC(C4)O2)C3)CC1,197
3,O=C(NC1CCN(C(=O)c2ccccc2F)CC1)NC12CC3CC(CC(C3)O1)C2,46
4,O=C(Nc1ccc(F)c(F)c1F)NC12CC3CC(CC(C3)O1)C2,21.3
